Measurements: publication PMC9509318 (Nature Communications, 2022)

Biological target: Pfs48/45-D3 (C-terminal 6-cys domain of Pfs48/45) (Plasmodium falciparum 3D7 …, UniProt Q8I6T1)
Assay: SPR
Details: both partners purified

B1: 85RF45.1 monoclonal antibody (antibody, V domains shown)
VH: EVQLVESGGGLLQPGRSLKLSCVASGFTFNNYWMSWIRQAPGKGLEWIASISNIGGTIYYPDSVKGRFTISRDSAQNTLYLQMNSLRSEDTATYYCTRDLRMSDYFDYWGQGVMVTVSS
VL: QFVLSQPNSVSTNLGSTVKLSCKRSTGNIGSNYVSWYQHHEGRSPTTMIYRDDQRPDGVPDRFSGSIDRSSNSALLTIDNVQTEDEAAYFCHSYSTGMYIFGGGTKLTVL
notes: source: hybridoma cell line, purified using protein A/G
With B1 the Kd was 2.5 nM.
